Data taken from patent US20260069689A1, “ANTI-SARS-COV-2-SPIKE GLYCOPROTEIN ANTIBODIES AND ANTIGEN-BINDING FRAGMENTS” (Regeneron, published 2026).

Molecular target: T1, human CD20 on Jurkat cells (human, UniProt P11836 1-297)
T1 sequence: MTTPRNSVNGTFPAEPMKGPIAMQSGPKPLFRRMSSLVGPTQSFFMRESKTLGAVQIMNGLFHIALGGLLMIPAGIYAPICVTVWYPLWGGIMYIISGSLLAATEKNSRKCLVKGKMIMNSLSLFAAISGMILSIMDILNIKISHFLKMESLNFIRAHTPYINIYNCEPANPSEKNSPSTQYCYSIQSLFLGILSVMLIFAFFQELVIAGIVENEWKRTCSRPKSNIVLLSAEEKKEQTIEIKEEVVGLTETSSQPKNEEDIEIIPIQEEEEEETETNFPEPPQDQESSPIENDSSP
Assay: cell-based or functional assay

B1: mAb15160 (antibody, V domains shown)
VH: EVQLVESGGGLVQPGGSLRLSCSASGFTFSRYAMYWVRQAPGKGLEYVSAISSDGGSTYDADSVKGRFTISRANSKNTLYLQMSSLRAEDTAVYYCVKGLRELLYYYYGMDVWGQGTTVTVSS
VL: DIQMTQSPSSLSASVGDRVTITCRAGQSISSFLNWYQQKPGKAPKLLIYAASSLQSGVPSRFSGSGSGTDFTLTISSLQPEDFATYYCQQSYITPFTFGPGTKVDIKR
- Max cytotoxicity (%), ADCC, NK donor #1, Jurkat/hCD20 cells: 4.6%
- Max cytotoxicity (%), ADCC, NK donor #2, Jurkat/hCD20 cells: 3.1%
- Max cytotoxicity (%), ADCC, NK donor #3, Jurkat/hCD20 cells: 0%
